# Antibody variant affinities, Ab-14 light chain, assay B

The target is the same throughout: PDVDLGDISGINAS, from the HR2 region of SARS-CoV-2 spike.

Ab-14 is the parent antibody, in scFv form: VH, then a (GGGGS)3 linker, then VL. The heavy chain is unchanged in all variants.
VH: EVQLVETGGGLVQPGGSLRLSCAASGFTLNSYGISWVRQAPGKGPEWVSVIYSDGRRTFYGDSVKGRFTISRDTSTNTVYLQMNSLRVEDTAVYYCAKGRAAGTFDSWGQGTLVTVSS
VL: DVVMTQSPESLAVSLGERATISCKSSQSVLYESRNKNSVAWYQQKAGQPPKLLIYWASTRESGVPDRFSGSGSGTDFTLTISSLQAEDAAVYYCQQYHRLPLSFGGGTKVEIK

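The parent was found by panning a naive human phage display library on the peptide. The variants were designed computationally from a first round of random CDR variants and then made and measured. Their group label is 14L_Ctrl (Ctrl: baseline library sampled from a position-specific scoring matrix, with some repeated check sequences). The scFvs were displayed on barcoded MATa yeast, the peptide on MATalpha yeast. After mating in shaken culture at 30 °C for 16 h, diploids were selected and their barcode pairs sequenced. The ratio of observed to expected reads was calibrated, replicate by replicate, on BCL2-family standards whose Kd was known from biolayer interferometry. The assay was run in six technical replicates.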

Each variant is given by its three light chain CDRs, as the data file delimits them; those of the parent are KSSQSVLYESRNKNSVA, WASTRES, QQYHRLPLS. Scale: log10 of Kd in nM, estimated from mating counts; low values are strong binders. Averages over replicates are reported, and they cover detected replicates only. An entry "nd" has no value in the source: the pair was not observed among the diploids in that replicate. This suggests poor binding but is not conclusive. As a blank, each scFv also met three strains without target: over all light chain designs, 4% of these pairings were detected, typically at 2.64 and seldom below 1.59. For each scFv, signals with the empty controls are counted beside the result.

KSSQSVLYFSRNKNSVA, WASTRES, QQYHHLPLS: nd, nd, nd, nd, nd, nd (controls 0 of 18).
KSSQSVLYESSNKNSVA, WASTRES, QQYHRLPLS: 0.99, 0.98, 1.06, 1.29, 1.32, 1.31 (mean 1.16; controls 1 of 18).
KLSQSVLYESRNKNSVA, DASLRES, QQYHRLPLS: -0.68, -0.85, -1.12, -0.91, -1.13, -0.98 (mean -0.95; controls 0 of 18).
KCDQSVLYESRNKNSVA, NASTRES, QQYHRLPLS: 0.00, 0.15, -0.14, -0.07, -0.13, 0.28 (mean 0.01; controls 2 of 18).
KSSQSVLWEERNKNSVA, WASTRES, QQYHRLPLS: 1.74, 3.18, nd, 1.95, 1.20, 1.97 (mean 2.01; controls 1 of 18).
KSSQSVLLESRNKNSVA, WASTREL, QQYHRLPLS: 1.65, nd, nd, 1.53, 2.15, nd (mean 1.78; controls 0 of 18).
KISESVLFQSRNKNSVA, WGSTRES, QQYHRLPLS: 0.70, 0.42, 0.32, 0.92, 0.21, 0.69 (mean 0.54; controls 0 of 18).
KVSQSVLYESRNKNSVA, WASTWES, QQYHRLPLS: nd, nd, nd, nd, nd, nd (controls 0 of 18).
KVSQSVLYESVNKNSVA, WASTRES, QQYHRLMLS: nd, nd, nd, nd, nd, nd (controls 0 of 18).
KSPQSVLYESRNKNSVA, WASTRES, DQYYRMPLS: 1.05, nd, 2.68, nd, 3.77, nd (mean 2.50; controls 0 of 18).
KSSQSVLYESRNKNHVA, WASTRES, DQYHILPLS: nd, nd, nd, nd, 1.56, nd (controls 0 of 18).
KSSCSVLYESRNKNSVA, WASTRES, QQYFRLPLS: nd, nd, nd, nd, nd, nd (controls 1 of 18).
KSSQSVLYESRNHNSVA, WASTRES, QQYHRLPIS: nd, nd, nd, nd, nd, nd (controls 0 of 18).
KSSQSVLKESLNKNSVA, WASTRES, QQYHRDPLS: nd, nd, nd, nd, nd, nd (controls 0 of 18).
KSMQTVLYEDRNKNSVA, WASTRES, QQYHRLPRS: nd, nd, nd, nd, nd, nd (controls 0 of 18).
KFSQSPLTESRNKNSVA, WASTRES, QQYHRLPLS: 0.96, 0.82, 0.73, 0.85, 0.84, 1.07 (mean 0.88; controls 2 of 18).
RISQSVLMESRNKNSVA, NASTHES, QQYHRLPLS: -0.08, -0.14, -0.13, -0.29, -0.03, -0.01 (mean -0.11; controls 1 of 18).
KSSQSELYESRNKNSVA, DASTRES, QQYHRLPLW: 0.33, 0.20, -0.11, 0.08, 0.09, 0.14 (mean 0.12; controls 0 of 18).
KYSQSVLVESRNKNSVA, WCSTRED, QQYHRLPLS: nd, nd, nd, nd, nd, nd (controls 0 of 18).
KSSQSVLYESRNKNSVA, WASTRES, QQYHRLCLS: nd, nd, nd, nd, nd, nd (controls 0 of 18).
KSSFSVLLESRNKNSVA, WDSTRWS, QQYHRLPLS: 1.48, nd, nd, nd, nd, 1.95 (mean 1.71; controls 1 of 18).
KSSQSVLYESRAKNSVA, WATTRES, QQYIRLPIS: nd, nd, nd, nd, nd, nd (controls 0 of 18).
KSSQSVLYESRNKNSVA, WASTRSS, QQCHRNPLS: nd, nd, nd, nd, nd, nd (controls 0 of 18).
KSSDSVLYESRNKNSVA, NASTRES, QQYHRLPLS: 0.54, 0.26, 0.41, 0.29, 0.60, 0.44 (mean 0.42; controls 0 of 18).
KISQSVLYESANKNFVA, WASTRES, QQYHKLPLS: 1.63, 1.83, 2.03, 0.89, 2.46, 2.50 (mean 1.89; controls 0 of 18).
KSSQSVLYESRNKNSVA, SASCRES, QQTHRLPLS: 2.55, nd, nd, nd, nd, nd (controls 1 of 18).
KHSDSVLYESRNKNSVA, WASTRES, QQYHRLPLS: nd, 2.12, 2.24, 1.38, nd, 1.18 (mean 1.73; controls 0 of 18).
KLSQSVLYESENKNSVA, WASTRES, QQYHRLPLS: 0.98, 0.67, 0.64, 0.92, 0.61, 0.90; 0.11, 0.08, 0.13, 0.41, 0.23, 0.41; 1.21, 1.37, 0.97, 1.30, 0.81, 1.03; 0.99, 0.58, 0.73, 0.55, 0.86, 1.06; 0.36, 0.67, 2.07, 0.37, 0.53, 0.59 (mean 0.74; controls 5 of 90).
KSSQSWLYISRNKNSVA, SASTTES, QQYSRLPLS: nd, nd, nd, nd, nd, 1.70 (controls 0 of 18).
ADSQSVLYESRNKNSVA, WASTRES, QQPHRWPLW: nd, nd, nd, nd, nd, nd (controls 0 of 18).
KSSQSGLMESRNKNSVA, WASTRVS, QQYHRLELG: 1.43, 1.26, 1.28, 1.13, 2.52, nd (mean 1.52; controls 1 of 18).
KSSQGVLYEYANKNSVA, NASTRES, QQYHRLPLS: 0.21, -0.01, -0.01, -0.17, -0.11, 0.08 (mean 0.00; controls 2 of 18).
KSSQGVTLESRNKNSVA, NASTRES, QQYHRLPLS: 0.78, 0.65, 0.61, 0.56, 0.87, 0.78 (mean 0.71; controls 5 of 18).
KMSQSVLYESFNKNSVA, WASTRES, QLYHRLPLS: nd, 2.62, 1.92, nd, nd, 2.39 (mean 2.31; controls 0 of 18).
KSSQAVEYESENKNSVA, AASKRAS, QQYHRLPLS: 0.45, 0.37, 0.18, 0.14, 0.10, 0.28 (mean 0.25; controls 3 of 18).
ASSQSVLEESWNKNSVA, WASTREV, QQYHRLPLS: 1.30, 1.20, 0.82, 1.94, 1.58, 1.69 (mean 1.42; controls 2 of 18).
KSSQSVLYESRNKNSVA, AASTRES, QQYNRLPLS: 0.65, 0.24, 0.51, 0.42, 0.40, 0.44 (mean 0.44; controls 1 of 18).
KNSFSDLYESENKNSVA, WASTRES, QQYHRLPLS: 0.98, 1.22, 1.00, 1.17, 0.93, 0.68 (mean 0.99; controls 0 of 18).
KVSQSVLYESRNKNSVA, WASMRES, QQYHRLPLS: 1.14, 0.93, 1.26, 1.03, 0.80, 1.29 (mean 1.07; controls 1 of 18).
KLSPSVLYESRNKNSVA, WASTRQS, QQYHRLPLS: 0.27, 0.34, 0.33, -0.13, 0.02, 0.03 (mean 0.14; controls 0 of 18).
KCSQSVLYESRNKNSVA, WASTRSS, QQYHRLPLS: 1.36, 2.58, 1.41, 2.47, 1.81, 2.20 (mean 1.97; controls 2 of 18).
KQSYSVEYTSRNKNSVA, WASTRES, QQYHRLPLS: nd, nd, nd, nd, nd, nd (controls 1 of 18).
KSSQSKLGESLNKNSVA, WAGTRES, QQYSRLPLS: nd, 1.29, 1.46, nd, 1.41, 2.92 (mean 1.77; controls 1 of 18).
KSSQSVLYESLNHNSVA, WASTRES, QQYHRLPLS: 1.58, 1.22, 1.58, 1.16, 1.41, 2.62 (mean 1.59; controls 0 of 18).
KSSQSIGYESRNKNSVA, WASTRNS, QQYHRLPLS: 1.89, 2.21, 1.95, 2.29, 3.00, 1.96 (mean 2.22; controls 2 of 18).
KISQSVLYESTNKNSVA, WASTRES, PQYHRLPLS: nd, nd, nd, 0.53, 0.58, nd (mean 0.55; controls 0 of 18).
KYSQSVPYESANKNSVA, WASTRES, QQYHRLPLS: nd, nd, nd, nd, nd, nd (controls 0 of 18).
KLSQSVLYESRNKNSVA, WASTRES, QQYHRMPLL: 1.73, 1.86, 1.80, 1.57, 0.79, 2.11 (mean 1.65; controls 1 of 18).
DSSQKPLYESRNKNSVA, WASTREN, QQYHRLPLS: nd, nd, 2.11, 2.68, 1.45, 1.68 (mean 1.98; controls 2 of 18).
KFIQIDLYESRNKNSVA, QASTRES, QQYHRLPLS: 0.50, 0.34, 0.40, 0.40, 0.15, 0.29 (mean 0.35; controls 0 of 18).

In the paper, a design with two or fewer of six values counts as a poor binder. The parent sequence was in this pool as ten entries: three were never detected, three once, and four in most replicates, with averages from 0.34 to 2.37. The range of this assay differs from that of the first round, and the authors advise against merging the two. A sequence that the file lists under several names has all its replicates listed entry by entry, parted by semicolons.

The measurements come from Li et al. 2023 (doi:10.1038/s41467-023-39022-2) through the FLAb antibody collection.